The values that follow come from PMC5514503.

The target in this test is T1, Flag-β-catenin, P35222.
T1 chain: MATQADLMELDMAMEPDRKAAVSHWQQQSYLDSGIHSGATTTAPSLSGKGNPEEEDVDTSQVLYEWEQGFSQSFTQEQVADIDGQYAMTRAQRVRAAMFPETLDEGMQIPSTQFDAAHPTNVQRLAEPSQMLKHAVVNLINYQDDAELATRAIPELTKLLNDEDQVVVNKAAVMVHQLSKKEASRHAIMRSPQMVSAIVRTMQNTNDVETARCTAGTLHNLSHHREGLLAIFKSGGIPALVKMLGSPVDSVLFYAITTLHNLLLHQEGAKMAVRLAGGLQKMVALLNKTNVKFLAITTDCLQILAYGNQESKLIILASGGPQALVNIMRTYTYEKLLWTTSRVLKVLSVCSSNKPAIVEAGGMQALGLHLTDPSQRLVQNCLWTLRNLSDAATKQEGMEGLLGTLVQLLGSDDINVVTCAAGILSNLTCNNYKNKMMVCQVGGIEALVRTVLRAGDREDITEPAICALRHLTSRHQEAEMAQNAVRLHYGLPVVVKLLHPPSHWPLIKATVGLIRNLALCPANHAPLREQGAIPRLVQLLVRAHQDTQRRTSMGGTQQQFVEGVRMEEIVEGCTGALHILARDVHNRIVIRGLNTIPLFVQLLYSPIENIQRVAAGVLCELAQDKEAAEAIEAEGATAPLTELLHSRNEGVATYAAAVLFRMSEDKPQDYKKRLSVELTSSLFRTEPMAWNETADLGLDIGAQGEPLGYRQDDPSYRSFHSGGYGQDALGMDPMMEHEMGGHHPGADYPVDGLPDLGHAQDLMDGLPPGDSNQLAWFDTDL
Kind of test: co-IP; HEK-293T cells co-transfected with the indicated plasmids; nuclear protein extracts incubated with anti-FLAG M2 or anti-c-Myc magnetic beads at 4 °C overnight, washed with TBS, eluted, western blot; in Fig. 6c with or without co-expressed FOXP3. Particulars: remark: other sources report otherwise. For orientation: Immunoblotting shows a protein as a band on a membrane.

B1: Myc-TCF4, Q9NQB0 1-619 (natural protein)
chain: MPQLNGGGGDDLGANDELISFKDEGEQEEKSSENSSAERDLADVKSSLVNESETNQNSSSDSEAERRPPPRSESFRDKSRESLEEAAKRQDGGLFKGPPYPGYPFIMIPDLTSPYLPNGSLSPTARTLHFQSGSTHYSAYKTIEHQIAVQYLQMKWPLLDVQAGSLQSRQALKDARSPSPAHIVSNKVPVVQHPHHVHPLTPLITYSNEHFTPGNPPPHLPADVDPKTGIPRPPHPPDISPYYPLSPGTVGQIPHPLGWLVPQQGQPVYPITTGGFRHPYPTALTVNASMSRFPPHMVPPHHTLHTTGIPHPAIVTPTVKQESSQSDVGSLHSSKHQDSKKEEEKKKPHIKKPLNAFMLYMKEMRAKVVAECTLKESAAINQILGRRWHALSREEQAKYYELARKERQLHMQLYPGWSARDNYGKKKKRKRDKQPGETNEHSECFLNPCLSLPPITDLSAPKKCRARFGLDQQNNWCGPCRRKKKCVRYIQGEGSCLSPPSSDGSLLDSPPPSPNLLGSPPRDAKSQTEQTQPLSLSLKPDPLAHLSMMPPPPALLLAEATHKASALCPNGALDLPPAALQPAAPSSSIAQPSTSSLHSHSSLAGTQPQPLSLVTKSLE
Consider B1, for which the fold increase of the co-precipitate when FOXP3 was co-expressed (against no FOXP3) was 1.45 fold.
